Experimental findings from US8293914B2, “4-OXO,1-4-dihydroquinoline M1 receptor positive allosteric modulators” (Merck Sharp & Dohme Corp., priority 2008, dated 2012) are described below.

Protein sequences, listed by entry. Tags and fused reporters are not part of them. Lines headed by an entry give the natural chain unless they say otherwise; changes in a name come on top.
UniProt P11229: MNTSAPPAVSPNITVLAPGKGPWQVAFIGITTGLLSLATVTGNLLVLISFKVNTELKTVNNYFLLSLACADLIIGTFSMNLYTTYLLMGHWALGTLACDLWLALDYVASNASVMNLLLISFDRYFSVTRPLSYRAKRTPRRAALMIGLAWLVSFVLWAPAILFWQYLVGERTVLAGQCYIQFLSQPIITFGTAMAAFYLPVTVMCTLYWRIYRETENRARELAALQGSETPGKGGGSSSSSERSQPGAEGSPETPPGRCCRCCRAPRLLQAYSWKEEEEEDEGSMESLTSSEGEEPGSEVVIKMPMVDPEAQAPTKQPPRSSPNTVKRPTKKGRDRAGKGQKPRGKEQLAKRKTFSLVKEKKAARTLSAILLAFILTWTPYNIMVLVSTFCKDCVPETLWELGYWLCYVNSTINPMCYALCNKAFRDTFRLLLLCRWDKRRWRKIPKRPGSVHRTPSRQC

What is called EC50 is the midpoint of the concentration-response curve.

Molecules are shown by their SMILES.

For the test, the target named is T1, acetylcholine muscarinic M1 receptor (CHOnfat/hM1 cells) (Homo sapiens, UniProt P11229).
T1 construct: expressed in transfected cells; host or cells: CHOnfat (CHO) cells expressing hM1
Nature of the test: muscarinic M1 FLIPR calcium assay for positive allosteric modulator activity (acetylcholine EC20). It is filed as cell-based. On the procedure:
The assay studies the effect of one or several concentrations of test compounds on basal or acetylcholine-stimulated Ca^2+ levels using FLIPR.
Compounds are prepared and subjected to a preincubation period of 4 min. Thereafter, a single EC20 concentration of acetylcholine is added to each well (3 nM final). The intracellular Ca^2+ level of each sample is measured and compared to an acetylcholine control to determine any modulatory activity.
Cells: CHOnfat/hM1, hM2, hM3 or hM4 cells are plated 24 hr before the assay at a density of 18,000 cells/well (100 μL) in a 384 well plate. CHOnfat/hM1 and CHOnfat/hM3 Growth Medium: 90% DMEM (Hi Glucose); 10% HI FBS; 2 mM L-glutamine; 0.1 mM NEAA; Pen-Strep; and 1 mg/ml Geneticin, are added. For M2Gqi5CHOnfat and M4Gqi5CHOnfat cells, an additional 600 μg/ml hygromycin is added.
Buffers. […] Dye Loading Buffer: Assay Buffer plus 1% Fetal Bovine Serum and Fluo-4AM/Pluronic Acid Mixture. […] 20% Pluronic Acid Solution stock, with a concentration of 0.04% in Buffer, 0.02% in Assay.
65 μL of 2 mM Fluo-4AM are mixed with 130 μL of 20% Pluronic Acid. The resulting solution and 650 μL FBS is added to the assay buffer for a total volume of 65 mL. Positive Controls: 4-Br-A23187: 10 mM in DMSO; final concentration 10 μM. Acetylcholine: 10 mM in water, working stock at both 20 μM and 30 μM in assay buffer, final concentration of 10 μM. This is used to check the maximum stimulation of the CHOK1/hM1 cells. 20 μM (2×) acetylcholine is added in the preincubation part of the assay, and the 30 μM (3×) stock is added in the second part. (EC20)Acetylcholine: 10 mM in water, working stock of 9 nM (3×), and final concentration in assay is 3 nM. This is used after the preincubation with test compounds. […]
After 60 min, the cells are washed three times with 100 μL of buffer, leaving 30 μL of buffer in each well. […] A signal test to check background fluorescence and basal fluorescence signal is performed. […]
The inflection point is calculated from the FLIPR values, and is a measure of activity.
`CC(=O)Nc1cccc(-c2ccc(Cn3cc(C(=O)O)c(=O)c4cccc(F)c43)nc2)c1` [Example 75]: the EC50 was found to be 131 nM.

Turning to `Cn1cc(-c2ccc(Cn3cc(C(=O)O)c(=O)c4c(F)cccc43)nc2)cn1` [Example 11], the EC50 worked out at 176 nM.

Regarding `O=C(O)c1cn(Cc2ccc(-c3cccnc3)nc2)c2c(F)cccc2c1=O` [Example 216], the EC50 turned out to be 951 nM.
